Measured values reported in ChEMBL document CHEMBL3885861, “Open TG-GATES”.

Species: Rattus norvegicus
Test: Open TG-GATES - Regimen: Single
Format: toxicity, organism-based, Sprague-Dawley
Parameters: regimen Single, gender Male, age 6 weeks
Conditions: in vivo, po, route gavage; for PT: tissue Blood; for BUN / Ca / Cl: tissue Plasma; for LIVER: tissue Liver
[1] = 0 mg/kg, 3 h, dose level Control
[2] = 0 mg/kg, 6 h, dose level Control
[3] = 0 mg/kg, 9 h, dose level Control
[4] = 0 mg/kg, 24 h, dose level Control
[5] = 100 mg/kg, 24 h, dose level Low
[6] = 300 mg/kg, 3 h, dose level Middle
[7] = 300 mg/kg, 6 h, dose level Middle
[8] = 300 mg/kg, 9 h, dose level Middle

CN(C)CCC=C1c2ccccc2COc2ccccc21 [DOXEPIN]
PT [1]: 13.9 s
BUN [1]: 10.6 mg/dL
Ca [1]: 10.8 mg/dL
Cl [1]: 104.8 meq/L
PT [2]: 13.7 s
BUN [2]: 8 mg/dL
Ca [2]: 10.6 mg/dL
Cl [2]: 106 meq/L
PT [3]: 14.2 s
BUN [3]: 8.4 mg/dL
Ca [3]: 10.4 mg/dL
Cl [3]: 105.8 meq/L
PT [4]: 13.6 s
LIVER [4]: 9.8 g
BUN [4]: 17 mg/dL
Ca [4]: 11 mg/dL
PT (100 mg/kg, 3 h, dose level Low): 13.9 s
BUN (100 mg/kg, 3 h, dose level Low): 9 mg/dL
Ca (100 mg/kg, 3 h, dose level Low): 10.9 mg/dL
Cl (100 mg/kg, 3 h, dose level Low): 106.8 meq/L
PT (100 mg/kg, 6 h, dose level Low): 14.1 s
BUN (100 mg/kg, 6 h, dose level Low): 7.4 mg/dL
Ca (100 mg/kg, 6 h, dose level Low): 10.6 mg/dL
Cl (100 mg/kg, 6 h, dose level Low): 107.4 meq/L
PT (100 mg/kg, 9 h, dose level Low): 14 s
BUN (100 mg/kg, 9 h, dose level Low): 6.8 mg/dL
Ca (100 mg/kg, 9 h, dose level Low): 10.4 mg/dL
Cl (100 mg/kg, 9 h, dose level Low): 107.4 meq/L
PT [5]: 14 s
LIVER [5]: 9.3 g
BUN [5]: 17 mg/dL
Ca [5]: 10.8 mg/dL
Cl [5]: 105.4 meq/L
PT [6]: 14.1 s
BUN [6]: 11.4 mg/dL
Ca [6]: 10.8 mg/dL
Cl [6]: 106.2 meq/L
PT [7]: 14 s
BUN [7]: 7.8 mg/dL
Cl [7]: 108 meq/L
PT [8]: 14.2 s
BUN [8]: 8 mg/dL
Ca [8]: 10.3 mg/dL
Cl [8]: 107.4 meq/L
Cl (300 mg/kg, 24 h, dose level Middle): 106.2 meq/L
